According to article PMC9646673, “A Novel, Orally Bioavailable, Small-Molecule Inhibitor of PCSK9 With Significant Cholesterol-Lowering Properties In Vivo” (Journal of Lipid Research, 2022):

Key:
APOE∗3-Leiden.CETP mice [1] = experiment: Second efficacy study: body weight, food intake, plasma ALT and AST; format: in vivo, mouse; set-up: unit not given here; details: NYX-PCSK9i 50 mg/kg BID PO, atorvastatin 4.9 mg/kg/day
Excerpt: Animal experiments were approved by the governmental central committee on animal experiments (AVD5010020172064) and TNO’s animal welfare body (TNO-471 and TNO-482). Female APOE∗3-Leiden.CETP transgenic mice (11–16 weeks of age) were bred at the animal facility of TNO-InnoSer (Leiden, The Netherlands). Female animals were used in this study as they are more responsive to dietary cholesterol and fat than males and therefore typically develop atherosclerosis more rapidly than male APOE∗3-Leiden and APOE∗3-Leiden.CETP mice on cholesterol-containing diets ([33], [34]). Although measurements of atherosclerosis were not included as part of the present study, females were used with the prospect in mind that atherosclerosis studies will follow. The mice were housed under standard conditions that included 12 h light-dark cycles and access to a WTD and sterilized tap water ad libitum. Body weight, food intake, and clinical signs of behavior were monitored throughout the studies. Mice were fed a semisynthetic WTD [containing 15% saturated fat and 0.15% cholesterol (w/w)]) for a run-in period of 3 weeks, after which mice were matched into groups based on age, body weight, plasma total cholesterol, and triglyceride levels. Time t = 0 (weeks) was designated as the time at which mice were matched into groups after the 3-week run-in period in each efficacy study.
(§1) In both studies, blood samples were collected at weekly intervals via tail vein sampling after fasting the mice for 4 h. Blood samples were centrifugated (4500 g at 4°C), and the plasma was collected for the following analyses. Total plasma cholesterol levels were determined using a Cholesterol CHOD-PAP kit according to the manufacturer’s instructions. Plasma HDL-C levels were determined by first precipitating apoB-containing lipids using PEG 6000/glycine and then utilizing the Cholesterol CHOD-PAP kit ([35]). Non-HDL-C levels were determined by subtracting HDL-C levels from total cholesterol levels ([32]). Group-pooled lipoprotein profiles were determined by FPLC analysis using an AKTApurifier 10 FPLC system (GE Healthcare, Chicago, IL). Plasma PCSK9 levels were determined using a Mouse PCSK9 Quantikine ELISA kit as per the manufacturer’s protocol. ALT and AST levels of group-pooled samples were measured using the Roche Reflotron Plus System (Mannheim, Germany).

APOE∗3-Leiden.CETP mice [2] = experiment: Second efficacy study (35 days, with atorvastatin): plasma lipids; format: in vivo, mouse; details: day 35; NYX-PCSK9i 50 mg/kg BID PO, atorvastatin 4.9 mg/kg/day diet admix
Excerpt: Animal experiments were approved by the governmental central committee on animal experiments (AVD5010020172064) and TNO’s animal welfare body (TNO-471 and TNO-482). Female APOE∗3-Leiden.CETP transgenic mice (11–16 weeks of age) were bred at the animal facility of TNO-InnoSer (Leiden, The Netherlands). Female animals were used in this study as they are more responsive to dietary cholesterol and fat than males and therefore typically develop atherosclerosis more rapidly than male APOE∗3-Leiden and APOE∗3-Leiden.CETP mice on cholesterol-containing diets ([33], [34]). […] Body weight, food intake, and clinical signs of behavior were monitored throughout the studies. […]
as §1, with “Blood samples were centrifugated (4500 g at 4°C), and the plasma was collected for the following analyses.” left out, “Plasma PCSK9 levels were determined using a Mouse PCSK9 Quantikine ELISA kit as per the manufacturer’s protocol. ALT and AST levels of group-pooled samples were measured using the Roche Reflotron Plus System (Mannheim, Germany).” left out

Structure (SMILES): CC(C)c1c(C(=O)Nc2ccccc2)c(-c2ccccc2)c(-c2ccc(F)cc2)n1CC[C@@H](O)C[C@@H](O)CC(=O)O [atorvastatin, reference compound]
- Body weight (mean ± SD) (APOE∗3-Leiden.CETP mice [1]; day 7): 22.1 ± 0.8
- Body weight (mean ± SD) (APOE∗3-Leiden.CETP mice [1]; day 14): 22.3 ± 0.9
- Body weight (mean ± SD) (APOE∗3-Leiden.CETP mice [1]; day 21): 22.1 ± 0.9
- Body weight (mean ± SD) (APOE∗3-Leiden.CETP mice [1]; day 35): 22.2 ± 1.3
- reduction in plasma total cholesterol relative to vehicle (APOE∗3-Leiden.CETP mice [2]): 27%
